Target: T1, CD40 (Mus musculus, UniProt P27512)
T1 construct: endogenous in cells
Assay: Cross-priming of E1B-specific CTLs in mice immunized with Ad5E1-BALB/c MECs, CD40 activation replacing CD4+ T help
Format: in vivo
Conditions: CD4-depleted mice after immunization; LPS 50 μg intravenous; IL-2 1×10^5 units in IFA subcutaneous (not shown)
Protocol: Splenocytes from normal (a) or CD4-depleted B6 (b) mice immunized with Ad5EI-BALB/c MECs were tested at various effector/target ratios for lysis of syngeneic MEC target cells loaded with the E1B192-200 peptide (solid lines), which is derived from human adenovirus and has the sequence […] (SEQ ID NO:1)or a D^d-restricted control peptide HPV-16 E749-57 (dashed lines). Each line represents one mouse. Data shown represent one experiment of three performed with similar results.
Splenocytes from CD4-depleted (a, b) or classII-deficient I-Ab-knockout (KO) (c,d) B6 mice were immunized with Ad5E1-BALB/c MECs and treated with either the CD40-activating antibody (Ab) FGK45 (a, c) or an isotype control antibody (b, d). These splenocytes were tested for E1B-specific CTL activity on syngeneic MEC target cells loaded with either the E1B192-200 peptide (solid lines) or the HPV-16 E749-57 control peptide (dashed lines). Each line represents a single mouse. Data depicted are from two independent experiments. E/T ratio, effector/target ratio. […]
To investigate whether signalling through CD40 can replace CD4^+ helper T cells in CTL priming, mice were depleted of CD4^+ T cells in vivo before immunization with Ad5E1BALB/c MECs. […] Priming of E1B-specific CTLs was not detected in naive mice treated with FGK45 alone (not shown). […]

The chains behind the UniProt entries cited, without tags or fusion partners. Residues count along the entry.
UniProt P27512, 20-289: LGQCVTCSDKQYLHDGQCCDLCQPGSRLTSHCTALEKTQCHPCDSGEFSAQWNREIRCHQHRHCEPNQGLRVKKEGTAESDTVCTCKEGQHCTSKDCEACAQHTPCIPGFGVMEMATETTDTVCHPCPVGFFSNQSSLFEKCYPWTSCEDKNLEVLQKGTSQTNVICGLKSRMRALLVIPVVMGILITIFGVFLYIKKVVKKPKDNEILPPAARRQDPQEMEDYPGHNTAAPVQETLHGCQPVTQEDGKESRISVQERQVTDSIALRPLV

How did the “E1B-specific CTL activity / CTL priming” value turn out when “IL-2: IL-2, cytokine given in incomplete Freund adjuvant” was run?
Its value is “neither LPS or IL-2 treatment resulted in detectable CTL priming”.

— patent publication US7563445B2, “CD40 binding molecules and CTL peptides for treating tumors” (priority 1998, dated 2009)
